Laboratory results taken from ChEMBL document CHEMBL3596144, “New Indole Tubulin Assembly Inhibitors Cause Stable Arrest of Mitotic Progression, Enhanced Stimulation of Natural Killer Cell Cytotoxic Activity, and Repression of Hedgehog-Dependent Cancer” (J Med Chem, 2015).

Assay: cells
Conditions: Homo sapiens, NCI/ADR-RES, 48 h

CC(=O)O[C@H]1C(=O)[C@@]2(C)[C@H]([C@H](OC(=O)c3ccccc3)[C@]3(O)C[C@H](OC(=O)[C@H](O)[C@@H](NC(=O)c4ccccc4)c4ccccc4)C(C)=C1C3(C)C)[C@]1(OC(C)=O)CO[C@@H]1C[C@@H]2O [PACLITAXEL]
IC50: 6 µM
